Legend:
[1] = Determination of gel formation and thixotropy by visual inspection; settings: gel from 3M CaCl2 / 6M ZnCl2 solution and 3% hypochlorite bleach, 1:19
[2] = Active chlorine concentration by standard titration; settings: 1.5% (weight/volume) added to gel from 3M CaCl2 / 6M ZnCl2 solution and 3% hypochlorite bleach, 1:19
pH of bleach and gels = settings: immediately upon addition

Substance | effect of reactivation with solid hypochlorite salt on gel consistency [1] | effect of added solid hypochlorite salt on active chlorine concentration of the gel [2] | pH of 3% hypochlorite bleach after addition (pH of bleach and gels)
Ca(OCl)2 | did not noticeably affect the consistency of the gel | elevated the active chlorine concentrations | 
Zinc chloride |  |  | approximately 5

From US20120021068A1, “COMPOSITIONS FOR DECONTAMINATION” (published 2012)
